Data: paper PMC4104666 (Bioorganic & medicinal chemistry letters, 2011)

Chains of the proteins cited; added tags and fusions are not shown.
UniProt P28222, whole entry: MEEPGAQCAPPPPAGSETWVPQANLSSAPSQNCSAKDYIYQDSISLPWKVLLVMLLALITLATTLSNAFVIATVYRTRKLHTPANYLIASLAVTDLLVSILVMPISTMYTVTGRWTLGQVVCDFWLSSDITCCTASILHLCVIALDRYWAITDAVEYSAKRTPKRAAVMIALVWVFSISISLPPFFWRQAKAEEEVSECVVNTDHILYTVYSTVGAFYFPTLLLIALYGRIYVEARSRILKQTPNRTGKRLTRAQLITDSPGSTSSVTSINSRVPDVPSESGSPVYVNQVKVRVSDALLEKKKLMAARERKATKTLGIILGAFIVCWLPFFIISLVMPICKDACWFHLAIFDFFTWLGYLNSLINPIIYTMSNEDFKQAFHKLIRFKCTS

Molecular target: 5-HT1B receptor (Homo sapiens, UniProt P28222)

CN1C[C@H](C(=O)N[C@]2(C)O[C@@]3(O)[C@@H]4CCCN4C(=O)[C@H](Cc4ccccc4)N3C2=O)C=C2c3cccc4[nH]cc(c34)C[C@H]21 [ergotamine]
radioligand competition displacement ([3H]-CT), HEK cell membranes: Displacement by the reference ligand ergotamine is shown for comparison.
